The results in this text go back to PubChem BioAssay AID686 (PCMD, 2007).

This is a selection; strong and weak results do not stand in their true shares. Active and inactive are the calls of the source.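 How the source made its calls: active means a full or partial loss of lipid-probe fluorescence in the fish gall bladder, intestine or both, judged by eye; inactive means no fluorescence loss, or compound toxic to the fish.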

The assay can be described thus: inhibitors of larval lipid processing in zebrafish, primary screen, whole organism, PED6 fluorescence, gall bladder and intestine (AID 686).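 Further: larvae 5 to 7 days old with five fish per well; signal comes from phospholipase A2 cleavage of quenched PED6 carried via bile.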 Conditions: Zebrafish larvae PED6 lipid processing, fluorescence scoring; screened at 20 µM (by protocol). The procedure, abridged: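 system = live zebrafish larvae aged 5-7 days, whole organism | probe or stimulus = ingested quenched lipid PED6 at 100 nM | doses = 20 µM single dose | timing = overnight exposure | detection = fluorescence microscopy with visual scoring of gall bladder and intestine | read-out = visual per-well fluorescence inhibition score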
As to `Cc1cccc(OCC(=O)OC2CN3CCC2CC3)c1` (configuration not stated), the result was inactive.

Turning to `Cc1ccc(OCC(=O)OC2CN3CCC2CC3)cc1` (configuration not stated), the outcome was inactive.
